Among the targets are 1C11_H3.172_L3; 1C11_H3.154_L3; 1C11_H3_L3.141; 1C11_H3_L3.142.
Holding throughout (test): Octet
A general note: Biolayer interferometry detects binding as a change in optical thickness at a sensor tip.

In assay [1] the target is 1C11_H3.241_L3.144 (XENP25827).
Assay [2] deals with 1C11_H3.240_L3.144 (XENP25826).
The target in assay [3] is 1C11_H3.241_L3.148 (XENP25830).
The target of assay [4] is 1C11_H3.239_L3.148 (XENP25828).
Assay [5] has as its target 1C11_H3.239_L3.144 (XENP25825).
Assay [6] addresses 1C11_H3.240_L3.148 (XENP25829).
Assay [7] has as its target 1C11_H3.237_L3 (XENP25332).
The target in assay [8] is 1C11_H3.238_L3 (XENP25333).
Assay [9] addresses 1C11_H3.235_L3 (XENP25330).
For assay [10], the target named is 1C11_H3.236_L3 (XENP25331).
The target in assay [11] is 1C11_H3.225_L3 (XENP25324).
Assay [12] deals with 1C11_H3.226_L3 (XENP25325).
For assay [13], the target named is 1C11_H3.224_L3 (XENP25323).
The target in assay [14] is 1C11_H3.223_L3 (XENP25322).

B1: PD-1 (receptor)
chain: LDSPDRPWNPPTFSPALLVVTEGDNATFTCSFSNTSESFVLNWYRMSPSNQTDKLAAFPEDRSQPGQDCRFRVTQLPNGRDFHMSVVRARRNDSGTYLCGAISLAPKAQIKESLRAELRVTERRAEVPTAHPSPSPRPAGQFQ
Consider B1, for which the dissociation constant Kd in [1] worked out at 0.0405 µM; in [2] it was 0.0431 µM; in [3], 0.0333 µM; in assay [4], 0.0447 µM; in assay [5], 0.0426 µM; in assay [6] it was 0.0275 µM. Besides, the Kd came to 0.0241 µM with 1C11_H3.172_L3; 0.0224 µM with 1C11_H3.154_L3; 0.0344 µM in assay [7]; 0.0384 µM in [8]; 0.0314 µM in [9]; 0.0394 µM in [10]. Besides, the Kd in assay [11] was 0.0322 µM; in [12], 0.0335 µM; in [13] it was 0.0306 µM; in assay [14] it was 0.0321 µM; in the assay with 1C11_H3_L3.141, 0.0337 µM; in the assay with 1C11_H3_L3.142, 0.0355 µM.

Usually Kd stands for a measure of binding affinity in units of concentration.
